How the values were obtained:
Assay type in all cases: binding
[1] = test system: Mouse monoclonal antibody AM19-1-7E12-2; assay: Antigen panel (direct) ELISA, MoAb tissue culture supernatant; conditions: for Percent reactivity: AM19-1-7E12-2, OD to test antigen / OD to AM19-1-DVS (1)-HSA × 100; for OD: AM19-1-7E12-2 TCS, coated test antigen
Procedure: (§1) 1. Use Falcon Pro-bind immunoplate.
(§2) 2. Dilute coating antigen (Ag) to 1.0 μg/mL in carbonate-bicarbonate buffer. Use glass tubes.
(§3) 3. Add 100 μL to each well of plate. Store overnight at 4° C.
(§4) 4. Shake out wells and wash 3× with 200 μL PBS/0.05% TWEEN™ (polyoxyethylene-sorbitol) (v/v) per well.
(§5) 5. Add blocking buffer, 200 μL per well (PBS/2% BSA (w/v)). Incubate for 60 min at 37° C.
(§6) 7. Add 100 μL per well of test antibody appropriately diluted in PBS/0.1% Tween (v/v). Incubate 60 min at 37° C.
(§7) 9. Dilute alkaline phosphatase conjugated anti-mouse IgG (Pierce cat #31322) in PBS/0.1% TWEEN™ (polyoxyethylene-sorbitol) (v/v) to 1:2000 concentration. Add 100 μL per well and incubate at 37° C. for 60 min.
(§8) 10. Wash 3× as in step 4.
(§9) 11. Prepare enzyme substrate using Sigma #104 alkaline phosphatase substrate tablets (1 mg/mL in 10% diethanolamine (v/v) substrate buffer). Add 100 μL per well and incubate in the dark at room temperature. Absorbance can be read at 405 nm at approximately 15-min intervals.
(§10) Spleen cells from mice immunized with the AM19-1-DVS (1) conjugate have been used to prepare MoAb secreting hybridoma cells. Anti-AM19-1-DVS (1) ELISA reactive IgM and IgG MoAb isotypes have been isolated. Table 19 illustrates the reactivity of TCS from two of these anti-AM19-1-DVS MoAbs (AM19-1-7E12-1 and AM19-1-7E12-2).

[2] = test system: Mouse monoclonal antibody AM19-1-7E12-1; assay: as above; conditions: for Percent reactivity: AM19-1-7E12-1, OD to test antigen / OD to AM19-1-DVS (1)-HSA × 100; for OD: AM19-1-7E12-1 TCS, coated test antigen
Procedure: as §1, §2, §3, §4, §5, §6, §7, §8, §9, §10

[3] = test system: Mouse monoclonal antibody CSA-2G9; assay: as above; conditions: for Percent reactivity: CSA-2G9, OD to test antigen / OD to CSA-DVS-HSA × 100; for OD: CSA-2G9 TCS, coated test antigen
Procedure: as §1, §2, §3, §4, §5, §6, §7, §8, §9
(§11) Spleen cells from mice immunized with the CSA-DVS conjugate have been used to prepare monoclonal antibody secreting hybridoma clones. IgM and IgG anti-CSA secreting clones have been isolated. Table 15 illustrates the reactivity of tissue culture supernatants (TCS) from two of these anti-CSA MoAbs (CSA-1H6 and CSA-2G9).

[4] = test system: Mouse monoclonal antibody CSA-1H6; assay: as above; conditions: for Percent reactivity: CSA-1H6, OD to test antigen / OD to CSA-DVS-HSA × 100; for OD: CSA-1H6 TCS, coated test antigen
Procedure: as §1, §2, §3, §4, §5, §6, §7, §8, §9, §11

[5] = test system: Mouse monoclonal antibody AM1-2E10; assay: as above; conditions: for Percent reactivity: AM1-2E10, OD to test antigen / OD to CSA-DVS-HSA × 100; for OD: AM1-2E10 TCS, coated test antigen
Procedure: as §1, §2, §3, §4, §5, §6, §7, §8, §9
(§12) Spleen cells from mice immunized with the AM1-DVS conjugates have been used to prepare monoclonal antibody secreting hybridoma cells. IgM and IgG anti-CSA MoAbs have been isolated by direct ELISA to CSA-DVS-HSA conjugates. Table 17 illustrates the reactivity of TCS from two of these monoclonal antibody clones (AM1-2E10 and Am1-7F5).

[6] = test system: Mouse monoclonal antibody AM1-7F5; assay: as above; conditions: for Percent reactivity: AM1-7F5, OD to test antigen / OD to CSA-DVS-HSA × 100; for OD: AM1-7F5 TCS, coated test antigen
Procedure: as §1, §2, §3, §4, §5, §6, §7, §8, §9, §12

[7] = test system: Mouse polyclonal sera (AM1-DVS-KLH immunogens); assay: Antigen panel (direct) ELISA, mouse polyclonal sera; conditions: for Percent reactivity: OD to test antigen / OD to CSA-DVS-HSA × 100; for OD: coated test antigen
Procedure: as §1, §2, §3, §4, §5, §6, §7, §8, §9
Individual mouse sera collected 10 days post-secondary and tertiary immunizations were assayed for antibody titre by direct ELISA. Mice having high anti-CSA titres were assayed for specificity by antigen panel reactivity.

[8] = test system: Mouse polyclonal sera (AM19-1-DVS (1) - KLH immunogen); assay: as above; conditions: for Percent reactivity: OD to test antigen/OD to AM19-1-DVS (1) × 100; for OD: coated test antigen
Procedure: as §1, §2, §3, §4, §5, §6, §7, §8, §9
(§13) These serum samples were assayed by direct ELISA for antibody titre to specific haptens. Sera showing high antibody reactivity to AM19 were further characterized by antigen panel ELISA (Table 6).

[9] = test system: Mouse polyclonal sera (AM19-1-DVS (2) - KLH immunogen); assay: as above; conditions: for Percent reactivity: OD to test antigen/OD to AM19-1-DVS (2) × 100; for OD: coated test antigen
Procedure: as §1, §2, §3, §4, §5, §6, §7, §8, §9, §13

[10] = test system: Mouse polyclonal sera (AM19-9-DVS-KLH immunogens); assay: as above; conditions: for Percent reactivity: OD to test antigen / OD to AM19-9-DVS-HSA × 100; for OD: coated test antigen
Procedure: as §1, §2, §3, §4, §5, §6, §7, §8, §9
Sera from mice immunized with the AM19-9-DVS immunogen showing high reactivity to the AM19-9-DVS hapten were further characterized by antigen panel ELISA (Table 9).

[11] = test system: Mouse polyclonal sera (AM9-1-DVS-KLH immunogen); assay: as above; conditions: for Percent reactivity: OD to test antigen / OD to AM9-1-DVS-HSA × 100; for OD: coated test antigen
Procedure: as §1, §2, §3, §4, §5, §6, §7, §8, §9
The reduction in antibody binding to the AM19-9 hapten is presumed to be due to masking of the epitope recognition site, (i.e., blocking the modified a.a. #9 residue with the DVS linker arm would thereby block Ab/Ag interaction). […] Screening for specific anti-AM9 MoAbs can also be achieved.

[12] = test system: Mouse polyclonal sera (AM9-9-DVS-KLH immunogen); assay: as above; conditions: for Percent reactivity: OD to test antigen/ OD to AM19-9-DVS-HSA × 100; for OD: coated test antigen
Procedure: as §1, §2, §3, §4, §5, §6, §7, §8, §9
Sera from mice immunized with the AM9-9-DVS immunogen which reacted strongly to the AM19-9-DVS hapten were further characterized by antigen panel ELISA (Table 13). Sera from these mice recognize epitopes on the AM19-9-DVS-HSA molecule. […] The reduction in antibody binding to panel antigens coupled through the amino acid #1 residue is presumed to be due to masking of the Ab epitope recognition site. As the AM9-9-DVS immunogens would present the amino acid #1 face of the molecule for immune recognition, blocking the amino acid #1 residue with the DVS linker arm would thereby block Ab/Ag interaction.

[13] = test system: Mouse polyclonal sera (CSA-DVS-KLH immunogen); assay: as above; conditions: for Percent reactivity: OD to test antigen / OD to CSA-DVS-HSA × 100; for OD: coated test antigen
Procedure: as §1, §2, §3, §4, §5, §6, §7, §8, §9
These sera had low reactivity to the AM19-9-DVS-HSA conjugate.

Work on “AM9-1-DVS-HSA: AM9-DVS hapten (DVS through secondary hydroxyl of amino acid 1) conjugated to HSA” yielded a Percent reactivity [1] of 95.5%, an OD [1] of 3.167 and a Percent reactivity [2] greater than 100%. It also gave an OD [2] of 3.268, a Percent reactivity [3] greater than 100% and an OD [3] of 2.978. The Percent reactivity [4] was greater than 100%, the OD [4] was 1.904 and the Percent reactivity [5] was greater than 100%. For the same substance, the OD [5] was 1.750, the Percent reactivity [6] was greater than 100% and the OD [6] was 2.465. The Percent reactivity ([7]; Mouse 1) was greater than 100%, the OD ([7]; Mouse 1) was 1.037 and the Percent reactivity ([7]; Mouse 2) was greater than 100%. It also gave an OD ([7]; Mouse 2) of 0.966, a Percent reactivity ([8]; Mouse 1) of 81.8% and an OD ([8]; Mouse 1) of 2.683. The Percent reactivity ([8]; Mouse 2) was 96.4%, the OD ([8]; Mouse 2) was 2.920 and the Percent reactivity ([9]; Mouse 3) was 97.2%. For the same substance, the OD ([9]; Mouse 3) was 1.372, the Percent reactivity ([9]; Mouse 4) was 82.9% and the OD ([9]; Mouse 4) was 2.134. For the same substance, the Percent reactivity ([10]; Mouse 5) was 7.2%, the OD ([10]; Mouse 5) was 0.232 and the Percent reactivity ([10]; Mouse 6) was 14.0%. The OD ([10]; Mouse 6) was 0.457, the Percent reactivity ([11]; Mouse 1) was 100% and the OD ([11]; Mouse 1) was 1.941. It also gave a Percent reactivity ([11]; Mouse 2) of 100%, an OD ([11]; Mouse 2) of 2.443 and a Percent reactivity ([12]; Mouse 1) of 8.2%. For the same substance, the OD ([12]; Mouse 1) was 0.252, the Percent reactivity ([12]; Mouse 2) was 0% and the OD ([12]; Mouse 2) was 0. For the same substance, the Percent reactivity ([12]; Mouse 3) was 0%, the OD ([12]; Mouse 3) was 0 and the Percent reactivity ([13]; Mouse 1) was greater than 100%. For the same substance, the OD ([13]; Mouse 1) was 1.304, the Percent reactivity ([13]; Mouse 2) was greater than 100% and the OD ([13]; Mouse 2) was 1.218.

“AM19-1-DVS-HSA (1): AM19-DVS hapten (DVS through secondary hydroxyl of amino acid 1) conjugated to HSA” gave a Percent reactivity [1] of 100%, an OD [1] of 3.316 and a Percent reactivity [2] of 100%. The OD [2] was 3.226, the Percent reactivity [3] was greater than 100% and the OD [3] was 2.731. It also gave a Percent reactivity [4] of 91.7%, an OD [4] of 1.390 and a Percent reactivity [5] of 100%. It also gave an OD [5] of 1.546, a Percent reactivity [6] greater than 100% and an OD [6] of 2.283. The Percent reactivity ([7]; Mouse 1) was greater than 100%, the OD ([7]; Mouse 1) was 1.075 and the Percent reactivity ([7]; Mouse 2) was greater than 100%. The OD ([7]; Mouse 2) was 1.244, the Percent reactivity ([8]; Mouse 1) was 100% and the OD ([8]; Mouse 1) was 3.281. For the same substance, the Percent reactivity ([8]; Mouse 2) was 100%, the OD ([8]; Mouse 2) was 3.028 and the Percent reactivity ([9]; Mouse 3) was 83.7%. It also gave an OD ([9]; Mouse 3) of 1.181, a Percent reactivity ([9]; Mouse 4) of 91.4% and an OD ([9]; Mouse 4) of 2.351. For the same substance, the Percent reactivity ([10]; Mouse 5) was greater than 100%, the OD ([10]; Mouse 5) was 3.411 and the Percent reactivity ([10]; Mouse 6) was 92.5%. The OD ([10]; Mouse 6) was 3.022, the Percent reactivity ([11]; Mouse 1) was greater than 100% and the OD ([11]; Mouse 1) was 2.683. For the same substance, the Percent reactivity ([11]; Mouse 2) was greater than 100%, the OD ([11]; Mouse 2) was 2.750 and the Percent reactivity ([12]; Mouse 1) was 0%. The OD ([12]; Mouse 1) was 0.018, the Percent reactivity ([12]; Mouse 2) was 0% and the OD ([12]; Mouse 2) was 0. For the same substance, the Percent reactivity ([12]; Mouse 3) was 43.1%, the OD ([12]; Mouse 3) was 0.777 and the Percent reactivity ([13]; Mouse 1) was greater than 100%. For the same substance, the OD ([13]; Mouse 1) was 1.099, the Percent reactivity ([13]; Mouse 2) was greater than 100% and the OD ([13]; Mouse 2) was 1.462.

For “AM19-1-DVS-HSA (2): AM19-DVS hapten (DVS through primary hydroxyl of amino acid 1) conjugated to HSA”, the Percent reactivity [1] was greater than 100%, the OD [1] was 3.504 and the Percent reactivity [2] was greater than 100%. It also gave an OD [2] of 3.405, a Percent reactivity [3] greater than 100% and an OD [3] of 3.219. It also gave a Percent reactivity [4] greater than 100%, an OD [4] of 1.870 and a Percent reactivity [5] greater than 100%. The OD [5] was 1.793, the Percent reactivity [6] was greater than 100% and the OD [6] was 3.372. It also gave a Percent reactivity ([7]; Mouse 1) greater than 100%, an OD ([7]; Mouse 1) of 0.982 and a Percent reactivity ([7]; Mouse 2) greater than 100%. The OD ([7]; Mouse 2) was 1.187, the Percent reactivity ([8]; Mouse 1) was 92.0% and the OD ([8]; Mouse 1) was 3.020. The Percent reactivity ([8]; Mouse 2) was greater than 100%, the OD ([8]; Mouse 2) was 3.188 and the Percent reactivity ([9]; Mouse 3) was 100%. It also gave an OD ([9]; Mouse 3) of 1.411, a Percent reactivity ([9]; Mouse 4) of 100% and an OD ([9]; Mouse 4) of 2.573. It also gave a Percent reactivity ([10]; Mouse 5) of 5.2%, an OD ([10]; Mouse 5) of 0.167 and a Percent reactivity ([10]; Mouse 6) of 29.6%. The OD ([10]; Mouse 6) was 0.968, the Percent reactivity ([11]; Mouse 1) was greater than 100% and the OD ([11]; Mouse 1) was 2.171. The Percent reactivity ([11]; Mouse 2) was greater than 100%, the OD ([11]; Mouse 2) was 2.859 and the Percent reactivity ([12]; Mouse 1) was 0%. For the same substance, the OD ([12]; Mouse 1) was 0.015, the Percent reactivity ([12]; Mouse 2) was 0% and the OD ([12]; Mouse 2) was 0. It also gave a Percent reactivity ([12]; Mouse 3) of 0%, an OD ([12]; Mouse 3) of 0 and a Percent reactivity ([13]; Mouse 1) greater than 100%. The OD ([13]; Mouse 1) was 1.212, the Percent reactivity ([13]; Mouse 2) was greater than 100% and the OD ([13]; Mouse 2) was 1.128.
